Test results as given in patent publication US12559474B2, “Triazine derivatives having virus replication inhibitory activity and pharmaceutical composition comprising the same” (priority 2021, dated 2026).

Molecular target: SARS-CoV-2 3CL protease (Severe acute respiratory syndrome coronavirus 2, UniProt P0DTD1)
Assay: biochemical
Details: 50% SARS-CoV-2 3CL protease inhibitory concentration, given as class symbols

Compound: Cn1cnc(Cn2c(=O)nc(Nc3cc4cn(C)nc4cc3Cl)n(Cc3cc(F)ccc3F)c2=O)n1 [II-0208]
- IC50: < 100 nM
